Assay: Pharmacokinetic study of oral zinc gluconate, plasma zinc by atomic absorption spectrometry
Format: in vivo, Labrador Retrievers
Settings: from both dogs
Method: Two unrelated nine-year old, healthy Labrador Retrievers (1 female and 1 male) were used in a pharmacokinetic study. Food was withheld for a 12-hour period prior to oral administration of zinc, and during the initial 6-hour testing period. Water was freely available. Oral zinc gluconate was administered at a dose of 10 mg/kg in dog 1, and at a dose of 5 mg/kg in dog 2. Heparinized blood samples (4 ml) were collected from the jugular vein before dosing (time 0) and 15, 30, 45, 60, 90, 120 minutes, and 4, 8, 12 and 24 hours after application of the drug. Plasma was stored at −20° C. until analysis for zinc using atomic absorption spectrometry.
Pharmacokinetic parameters (WinNonlin 4.0.1. (Pharsight Corporation, 800 West El Camino Real, Mountain View, Calif., USA) and statistical analysis (SPSS 11.0 for windows, 2001, SPSS Inc., Chicago, Ill., USA) were calculated by use of commercially available software packages. Due to small group sizes a non-parametric statistical test was used for comparison between groups. A Mann-Whitney test was used to detect a difference between hepatic copper concentrations before and after treatment with diet and zinc-gluconate (group-1) at two control examinations (recheck-1 and recheck-2), and after treatment with diet and placebo (group-2) at both control examinations. […]

Q: With zinc gluconate as the substance, how does the “calculated half-life t′/2” value read?
A: 15.1 h

Source: US20100278938A1, “GENETIC TEST AND PET DIET” (MARS, INC, priority 2007, published 2010)
